Consider 22 molecules from patent US20070020327A1.

What all share (conditions): remark: other sources report otherwise
Experiment [1] addresses HLA-A*0203 (human). Put plainly: competition with 125I-labelled standard peptide on purified HLA, gel filtration. (In gel filtration, larger molecules generally elute earlier.)
For experiment [2], the target named is HLA-A*0201 (human). The experiment is described as above.
Experiment [3] addresses HLA-A*0206 (human). Put plainly: competition with 125I-labelled standard peptide for purified HLA, gel filtration.
Experiment [4] deals with HLA-A*6802 (human). Described as above.
The target in experiment [5] is HLA-A*0203 (human). The experiment is described as above.
Experiment [6] concerns the target HLA-A*0201 (human). The experiment is described as above.
Experiment [7] addresses HLA-A*0202 (human). Described as above.
In experiment [8] the target is HLA-A*6802 (human). In words: inhibition of 125I-labelled probe peptide binding to purified HLA, gel filtration.
Experiment [9] deals with HLA-A*0202 (human). Described as above.
Experiment [10] has as its target HLA-A*0206 (human). Put plainly: competitive inhibition of 125I-labelled standard peptide binding to purified HLA, gel filtration.
Experiment [11] addresses HLA-A*6802 (human). The description is as above.
For experiment [12], the target named is HLA-A*0203 (human). Described as above.
Experiment [13] concerns the target HLA-A*0201 (human). Described as above.
Experiment [14] addresses HLA-A*0202 (human). The experiment is described as above.
In experiment [15] the target is HLA-A*0206 (human). In words: inhibition of 125I-labelled probe peptide binding to purified HLA; gel filtration.
The target of experiment [16] is HLA-A*0203 (human). Described as above.
Experiment [17] deals with HLA-A*0201 (human). The description is as above.
In experiment [18] the target is HLA-A*0202 (human). The description is as above.
The target in experiment [19] is HLA-A*6802 (human). The experiment is described as above.
Experiment [20] concerns the target HLA-A*0206 (human). In words: competitive inhibition of 125I-labelled standard peptide binding to purified HLA.
In experiment [21] the target is HLA-A*0203 (human). The description is as above.
For experiment [22], the target named is HLA-A*0202 (human). Described as above.
Experiment [23] concerns the target HLA-A*0201 (human). The experiment is described as above.
The target in experiment [24] is HLA-A*0206 (human). In words: inhibition of 125I-labelled probe peptide binding to purified HLA, gel filtration.
Experiment [25] addresses HLA-A*0203 (human). Described as above.
The target of experiment [26] is HLA-A*0201 (human). The description is as above.
Experiment [27] addresses HLA-A*0206 (human). Put plainly: competition with 125I standard peptide for purified HLA; gel filtration.
Experiment [28] concerns the target HLA-A*6802 (human). Described as above.
Experiment [29] deals with HLA-A*0203 (human). The description is as above.
Experiment [30] has as its target HLA-A*0202 (human). Described as above.
Experiment [31] concerns the target HLA-A*0201 (human). The experiment is described as above.
For experiment [32], the target named is HLA-A*0201 (human). Put plainly: competition with 125I-labeled probe peptide for purified HLA, gel filtration.
For experiment [33], the target named is HLA-A*0202 (human). Described as above.
For experiment [34], the target named is HLA-A*0203 (human). Described as above.

A word on the IC50: it is the concentration needed to halve the response being measured. A lower IC50 goes with higher potency.

As for VLAKELKFVV (modifications not checked) [peptide 63.0034 … (PAP.30.V10)], the concentration for half-maximal inhibition (IC50) in [1] came to 189 nM; in experiment [2], 31 nM.

On to MLLRLSEPV (modifications not checked) [peptide 1389.10 (PSA.118.V9 / HuK2.122.V9)], for which the IC50 in experiment [3] came to 638 nM; in [4], 421 nM; in experiment [5], 46 nM; in experiment [6] it was 36 nM; in [7], 36 nM.

Consider LMLLRLSEPV (modifications not checked) [Peptide 1418.43 (HuK2.121.V10; PSA.117.V10) …], for which the half-maximal inhibitory concentration (IC50) in experiment [8] amounted to 6150 nM; in experiment [9], 67 nM.

In the case of MLLRLSEPV (modifications not checked) [peptide 1389.10 … (HuK2.122.V9)], the IC50 is 638 nM in [10]; 421 nM in [11]; 46 nM in experiment [12]; 36 nM in experiment [13]; 36 nM in [14].

For DLMLLRLSEPV (modifications not checked) [peptide 1419.13 … (HuK2.120.V11)], the IC50 stood at 148 nM in [10] and 2760 nM in experiment [11].

As for IMYSAHDTTV (modifications not checked) [peptide 1097.05 (PAP.284)], the IC50 in experiment [15] came to 411 nM; in experiment [16], 14 nM; in experiment [17], 217 nM; in [18], 1.5 nM.

ITLWQPIPV (modifications not checked) [peptide 1418.25 (PAP.135.T2)]: the half-maximal inhibitory concentration (IC50) in experiment [19] amounted to 32 nM; in [16], 6.2 nM; in [17], 34 nM.

On to ILLWQPIPV (modifications not checked) [peptide 1044.04 (PAP.135)], for which the IC50 in experiment [15] turned out to be 71 nM; in [16], 1.8 nM; in experiment [17], 3.3 nM; in experiment [18] it was 39 nM.

As for LLARAASLSV (modifications not checked) [peptide 63.0031 … (PAP.7.V10)], the 50% inhibitory concentration (IC50) in experiment [1] came to 21 nM; in [2], 109 nM.

Turning to LMLLRLSEPA (modifications not checked) [Peptide 63.0014, … (PSA.117)], the IC50 amounted to 925 nM in experiment [20], 67 nM in [21] and 17 nM in experiment [22].

Take ALGTTCYV (modifications not checked) [Peptide 1389.14, ALGTTCYV (PSA.143.V8)]: the IC50 in experiment [20] was determined as 264 nM; in [23] it was 74 nM; in experiment [22], 6.4 nM.

Turning to PLVCNGVLQGV (modifications not checked) [peptide 1419.17 … (HuK2.216.V11)], the results for the concentration for half-maximal inhibition (IC50) in experiment [12] and in [13] were 19 nM and 27 nM, respectively.

Take MLLRLSEPV (modifications not checked) [Peptide 1389.10 (HuK2.122.V9; PSA.118.V9) …]: the IC50 in [24] came to 638 nM; in experiment [8], 421 nM; in experiment [25] it was 46 nM; in experiment [26] it was 36 nM; in experiment [9], 36 nM.

In the case of DLMLLRLSEPV (modifications not checked) [peptide 1419.13 (PSA.116.V11 / HuK2.120.V11)], the IC50 is 148 nM in experiment [3] and 2760 nM in experiment [4].

Consider SLSLGFLFLL (modifications not checked) [Peptide 1419.51 … (PAP.13)], for which the IC50 in [27] stood at 21 nM; in [28], 8560 nM; in experiment [29], 403 nM; in experiment [30] it was 13 nM.

Consider GLHGQDLFGV (modifications not checked) [peptide 1419.62 (PAP.196.V10)], for which the IC50 in experiment [16] turned out to be 3.1 nM; in experiment [18] it was 2.3 nM.

For ITLWQPIPV (modifications not checked) [Peptide 1418.25 … (PAP.135.T2)], the IC50 in [28] is 32 nM; in experiment [29], 6.2 nM; in [31] it was 34 nM.

For the molecule ALGTTCYV (modifications not checked) [peptide 1389.14 ALGTTCYV (HuK2.147.V8)], the IC50 in experiment [10] amounted to 264 nM; in experiment [13], 74 nM; in [14], 6.4 nM.

As for DLMLLRLSEPV (modifications not checked) [Peptide 63.0109 (HuK2.120.V11; PSA.116.V11) …], the IC50 was 148 nM in experiment [24] and 2760 nM in experiment [8].

ALGTTCYA (modifications not checked) [Peptide 1419.01, ALGTTCYA (PSA.143)]: the concentration for half-maximal inhibition (IC50) came out at 561 nM in [20], 13 nM in experiment [21], 15 nM in [23] and 19 nM in experiment [22].

On to QLMFLERAFI (modifications not checked) [Peptide 1126.16 … (PSM.667)], for which the IC50 in experiment [32] stood at 98 nM; in experiment [33], 36 nM.

Take VLAGGFFLL (modifications not checked) [Peptide 1126.10 … (PSM.27)]: the values for the IC50 in experiment [34] and in experiment [32] were 33 nM and 39 nM, respectively.
